From patent US5994357A, “Method of treatment for interstitial cystitis” (priority 1994, dated 1999)

Tested on: Rat Bladder Mast Cells
Assay: ID20 for histamine release, inhibition of mast cell secretion by H-1 receptor antagonists in vitro (Table 5)
Format: cell-based
Conditions: read-out: ID20 for Histamine Release from Rat Bladder Mast Cells
Description: "Inhibitor of neurohormonal activation of mast cell secretion" refers to any substance or group of substances, devoid of any psychotropic effects which prevent the stimulation of mast cell secretion by hormones or molecules produced by nervous tissue. Whether or not a pharmacologically active substance is an inhibitor of neurohormonal activation of mast cell secretion can be determined by using the following procedure: Mast cells purified from peritoneal cavities of rats and stimulated by a neuropeptide, such as somatostatin (Theoharides, T. C. and Douglas, W. W. Endocrinology 102:1637-1640, 1978), or rat brain slices stimulated by substance P in special perfusion chambers (Dimitriadou, V., Buzzi, M. G., Moskowitz, M. A. and Theoharides, T. C. Neuroscience 44:27-39, 1991) or rat bladder mast cells stimulated by carbachol in special perfusion chambers (Theoharides, T. C. and Sant, G. R. Seminars Urology […], 1991) will first be […] with concentration of the agents to be tested ranging from 0.1 μmol/L-to-100 μmol/L of solution for varying amounts of time at 37° C. to determine their ability to inhibit subsequent mast cell secretion as described above. […]

CN1CCC(=C2c3ccccc3CC(=O)c3sccc32)CC1 [Ketotifen]
IC20: 10 µM
